# Laboratory results published in patent US20020161528A1, “Tool for lipophilicity determination in drug discovery basic and neutral compounds” (Pfizer Inc., priority 2001, published 2002).
# Some compounds may have been tested in ways that are not shown here.
# Tests used:
# [1] = Table 1; average of literature references only; pH 7.4; cited from earlier work
# [2] = Table 1
structure (smiles),measurement,setting,value
CCC(=O)N(c1ccccc1)C1CCN(CCc2ccccc2)CC1,logDoct,[1],2.91
same,Res (logDoct − ElogDoct),[2],0.52
same,log k′w,"[2]; capacity factor extrapolated to 0% methanol, average of three to five determinations, pH 7.4",1.94
same,ElogDoct,"[2]; from log k′w by Equation 1, pH 7.4",2.39
